Experimental data taken from patent publication US11155523B2, “Biphenyl compound as CCR2/CCR5 receptor antagonist” (Medshine Discovery Inc., priority 2016, dated 2021).

The chains behind the UniProt entries cited, without tags or fusion partners.
UniProt P41597, whole entry: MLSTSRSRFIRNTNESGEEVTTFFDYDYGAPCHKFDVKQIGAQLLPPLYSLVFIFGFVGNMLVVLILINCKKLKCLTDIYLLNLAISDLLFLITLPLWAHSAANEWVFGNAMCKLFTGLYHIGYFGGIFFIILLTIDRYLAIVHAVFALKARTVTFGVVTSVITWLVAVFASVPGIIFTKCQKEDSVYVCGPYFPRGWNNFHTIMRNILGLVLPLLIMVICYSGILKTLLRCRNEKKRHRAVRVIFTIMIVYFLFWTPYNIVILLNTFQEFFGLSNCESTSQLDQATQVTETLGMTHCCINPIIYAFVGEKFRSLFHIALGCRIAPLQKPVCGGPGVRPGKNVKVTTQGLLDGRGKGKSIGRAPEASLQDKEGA
UniProt P51681, whole entry: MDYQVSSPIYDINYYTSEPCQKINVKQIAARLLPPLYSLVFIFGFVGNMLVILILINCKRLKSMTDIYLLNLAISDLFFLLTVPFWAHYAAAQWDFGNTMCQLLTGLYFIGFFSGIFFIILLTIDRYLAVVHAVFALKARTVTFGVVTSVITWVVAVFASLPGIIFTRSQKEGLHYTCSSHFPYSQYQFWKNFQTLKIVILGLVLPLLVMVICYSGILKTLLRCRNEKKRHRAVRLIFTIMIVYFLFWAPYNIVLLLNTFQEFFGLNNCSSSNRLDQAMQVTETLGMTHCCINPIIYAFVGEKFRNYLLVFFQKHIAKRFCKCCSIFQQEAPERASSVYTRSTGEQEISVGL

Tests used:
[1] = biological target: CCR2 (Homo sapiens, UniProt P41597); experiment: CCR2 in vitro test: intracellular calcium signal detected by FLIPR; details: read-out: IC50 detected by FLIPR, CCR2; HEK293 cells expressing CCR2, agonist MCP-1 at EC80, calcium signal
Experimental: (§1) Experimental Example 1: CCR2/CCR5 In Vitro Test
(§2) The intracellular calcium signal was detected by FLIPR, and the IC50 value of the compound was used as an index to evaluate the inhibitory effect of the compound on CCR2 and CCR5 receptors.
(§3) 1. Cell line: The cells were inoculated and incubated in a 5% CO2 incubator at 37° C. overnight.
(§4) CCR2/CCR5 density: 1 M (20 k/well)
(§5) 2. Reagents: Fluo-4 Direct, (Invitrogen, Cat #F10471)
(§6) The compound was dissolved in DMSO to prepare a 10 mM solution, and the compound solution was placed in a nitrogen box.
(§7) Agonist reference compounds:
(§8) Preparation of probenecid in FLIPR assay buffer: 1 mL of FLIPR assay buffer was added to […] of probenecid to prepare a 250 mM solution, which is prepared fresh daily. […]
(§9) (f) For DRC plate: • 1) Run the program on FLIPRTETRA. • 2) Read the fluorescent signal. • 3) Transfer 10 μL of compound from the DRC plate to the cell plate. • 4) Read the fluorescent signal. • 5) Calculate the “maximum−minimum” from Read 90 to the maximum allowed. […]
(§10) (g) For the composite plate (1-add): • 1) Run the program on FLIPRTETRA. • 2) Transfer 10 μl, of 5×EC80 concentration of the agonist reference compound from the composite plate to the cell plate. • 3) Read the fluorescent signal. • 4) Calculate the “maximum−minimum” from Read 90 to the maximum allowed. […]

[2] = biological target: CCR5 (Homo sapiens, UniProt P51681); experiment: CCR5 in vitro test: intracellular calcium signal detected by FLIPR; details: read-out: IC50 detected by FLIPR, CCR5; HEK293 cells expressing CCR5, agonist RANTES at EC80, calcium signal
Experimental: as §1, §2, §3, §4, §5, §6, §7, §8, §9, §10

CCCCOCCOc1ccc(-c2ccc(S(=O)(=O)C(C)C)c(/C=C/C(=O)Nc3ccc([S@@+]([O-])Cc4cncn4CCC)cc3)c2)cc1
IC50 [1]: 25.4 nM
IC50 [2]: 1.3 nM
